Patent US20250057913A1, “USE OF SOMATOSTATIN AGONIST IN THE TREATMENT OF SSTR3 EXPRESSING TUMORS” (ITALFARMACO SPA, priority 2021, published 2025)

By UniProt entry, the sequences of proteins in these tests, tags left out. Where a name states a change or a piece, a line headed by the entry shows the natural chain unless it says otherwise.
UniProt P61278: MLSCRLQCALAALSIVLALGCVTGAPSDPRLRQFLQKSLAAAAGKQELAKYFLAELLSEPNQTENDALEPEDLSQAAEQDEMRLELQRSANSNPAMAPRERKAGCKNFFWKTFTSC

Legend:
[1] = target: wild-type hSSTR2 stably expressed in HEK293 cells (human) (UniProt P30874)
[2] = target: wild-type hSSTR3 stably expressed in HEK293 cells (human) (UniProt P32745)
[3] = target: wild-type hSSTR5 stably expressed in HEK293 cells (human) (UniProt P35346)

Compound activity (EC50 nM), GIRK membrane potential assay [1]: 0.4 nM | Compound activity (EC50 nM), GIRK membrane potential assay [2]: 0.8 nM | Compound activity (EC50 nM), GIRK membrane potential assay [3]: 0.5 nM
Substance: SST14 (from UniProt P61278) (ligand)
